Literature values, collected in patent US20150024966A1, “MESENCHYMAL STEM CELLS FOR IN VITRO MODELING AND CELL-BASED THERAPY OF HUMAN DISEASES AND BANKS THEREOF” (BrainStem Biotec Ltd., priority 2012, published 2015).

Tested on: ALS patients

**Q.** With `Nc1nc2ccc(OC(F)(F)F)cc2s1` [riluzole] as the molecule, how does the “increases the rate of survival” value read?
**A.** 6 months
